Experimental data published in US10022353B2, “Cebranopadol for treating pain in subjects with impaired hepatic and/or impaired renal function” (dated 2018).

Columns and labels:
[1] = Phase IIb trial, treatment emergent adverse events in subjects with normal, mildly and moderately impaired renal function
[2] = Phase I single dose study, safety (adverse events) in subjects with different degrees of impaired renal function
[3] = Phase I single dose study, safety (treatment emergent adverse events) in subjects with normal and impaired hepatic function; settings: single 200 μg dose
[4] = Phase I single dose study, pharmacokinetics in subjects with normal and impaired hepatic function; settings: mean, single 200 μg Cebranopadol dose
[5] = mild renal impairment, 200 μg oral
[6] = mild renal impairment, 400 μg oral
[7] = mild renal impairment, 600 μg oral
[8] = mild renal impairment, Cebranopadol overall
[9] = moderate renal impairment, 200 μg
[10] = moderate renal impairment, 200 μg oral
[11] = moderate renal impairment, 400 μg
[12] = moderate renal impairment, 400 μg oral
[13] = moderate renal impairment, 600 μg
[14] = moderate renal impairment, 600 μg oral
[15] = moderate renal impairment, overall
[16] = normal renal function, 200 μg oral
[17] = normal renal function, 400 μg oral
[18] = normal renal function, 600 μg oral
[19] = normal renal function, Cebranopadol overall
[20] = final data, all groups, out of 34 subjects
[21] = final data, mild renal impairment, single 200 μg dose
[22] = final data, moderate renal impairment, single 200 μg dose
[23] = final data, no renal impairment, single 200 μg dose
[24] = final data, severe renal impairment, single 200 μg dose
[25] = preliminary data, all groups, out of 33 subjects
[26] = preliminary data, mild renal impairment
[27] = preliminary data, mild renal impairment, single 200 μg dose
[28] = preliminary data, moderate renal impairment
[29] = preliminary data, moderate renal impairment, single 200 μg dose
[30] = preliminary data, no renal impairment
[31] = preliminary data, no renal impairment, single 200 μg dose
[32] = preliminary data, out of 30 adverse events
[33] = preliminary data, severe renal impairment
[34] = preliminary data, severe renal impairment, single 200 μg dose
[35] = preliminary data, total of all groups
[36] = mild hepatic impairment (Child-Pugh)
[37] = moderate hepatic impairment (Child-Pugh)
[38] = no hepatic impairment (normal hepatic function)
[39] = severe hepatic impairment (Child-Pugh)

## CN(C)[C@]1(c2ccccc2)CC[C@]2(CC1)OCCc1c3cc(F)ccc3[nH]c12
[1]; [5]
  No. of subjects with TEAE: 30
  subjects with TEAE (percent): (85.7%)
[1]; [6]
  No. of subjects with TEAE: 38
  subjects with TEAE (percent): (88.4%)
[1]; [7]
  No. of subjects with TEAE: 37
  subjects with TEAE (percent): (90.2%)
[1]; [8]
  No. of subjects with TEAE: 105
  subjects with TEAE (percent): (88.2%)
[1]; moderate renal impairment
  treatment emergent adverse events related to the underlying renal impairment: 2
[1]; [9]
  cases of disturbance attention: 0
  cases of head discomfort: 1
  cases of pre-renal failure: 0
  cases of urinary tract infection: 1
[1]; [10]
  No. of subjects with TEAE: 5
  subjects with TEAE (percent): (100%)
[1]; [11]
  cases of disturbance attention: 0
  cases of head discomfort: 0
  cases of pre-renal failure: 0
  cases of urinary tract infection: 0
[1]; [12]
  No. of subjects with TEAE: 1
  subjects with TEAE (percent): (100%)
[1]; [13]
  cases of disturbance attention: 1
  cases of head discomfort: 0
  cases of pre-renal failure: 1
  cases of urinary tract infection: 0
[1]; [14]
  No. of subjects with TEAE: 2
  subjects with TEAE (percent): (100%)
[1]; moderate renal impairment, Cebranopadol overall
  No. of subjects with TEAE: 8
[1]; [15]
  cases of disturbance attention: 1
  cases of head discomfort: 1
  cases of pre-renal failure: 1
  cases of urinary tract infection: 1
[1]; multiple doses up to 600 μg/day, mild and moderate renal impairment
  safety: safe
[1]; [16]
  No. of subjects with TEAE: 73
  subjects with TEAE (percent): (81.1%)
[1]; [17]
  No. of subjects with TEAE: 68
  subjects with TEAE (percent): (81.9%)
[1]; [18]
  No. of subjects with TEAE: 76
  subjects with TEAE (percent): (89.4%)
[1]; [19]
  No. of subjects with TEAE: 217
  subjects with TEAE (percent): (84.1%)
[1]; overall, mild renal impairment
  TEAE constipation: 19.3%
  TEAE dizziness: 31.9%
  TEAE dry mouth: 5.9%
  TEAE fatigue: 16.8%
  TEAE hyperhidrosis: 5.0%
  TEAE nausea: 31.9%
  TEAE somnolence: 19.3%
  TEAE vomiting: 21.0%
[1]; overall, normal renal function
  TEAE constipation: 14.7%
  TEAE dizziness: 37.6%
  TEAE dry mouth: 1.9%
  TEAE fatigue: 13.6%
  TEAE hyperhidrosis: 12.0%
  TEAE nausea: 27.9%
  TEAE somnolence: 17.4%
  TEAE vomiting: 16.3%
[2]; all groups, single 200 μg dose
  adverse events not reported as related to Cebranopadol: 3
  outcome of adverse events: All events were resolved
  severe adverse events: No severe adverse event was reported
[2]; all renal function groups, single 200 μg dose
  deaths or serious adverse events: No deaths or serious adverse events were reported
[2]; final data, all groups
  moderate adverse events reported: 6
  total adverse events: 30
[2]; [20]
  subjects reporting adverse events (number): 13
  subjects reporting adverse events (percent): 38.2%
[2]; [21]
  number of events: 10
  number of events (percent of the total 30 adverse events): 33.3%
  subjects with adverse events (number): 5
  subjects with adverse events (percent of group): 55.6%
[2]; [22]
  number of events: 9
  number of events (percent of the total 30 adverse events): 30.0%
  subjects with adverse events (number): 3
  subjects with adverse events (percent of group): 33.3%
[2]; [23]
  number of events: 4
  number of events (percent of the total 30 adverse events): 13.3%
  subjects with adverse events (number): 3
  subjects with adverse events (percent of group): 37.5%
[2]; [24]
  number of events: 7
  number of events (percent of the total 30 adverse events): 23.3%
  subjects with adverse events (number): 2
  subjects with adverse events (percent of group): 25.0%
[2]; preliminary data, all groups
  moderate adverse events reported: 7
  total adverse events: 30
[2]; [25]
  subjects reporting adverse events (number): 14
  subjects reporting adverse events (percent): 42.4%
[2]; [26]
  unexpected adverse events: increased blood pressure: 1
  unexpected adverse events: low back pain: 2
  unexpected adverse events: total: 3
[2]; [27]
  number of events: 10
  number of events (percent of the total 30 adverse events): 33.3%
  subjects with adverse events (number): 5
  subjects with adverse events (percent of group): 62.5%
[2]; [28]
  unexpected adverse events: headache: 2
  unexpected adverse events: orbital pain: 1
  unexpected adverse events: total: 3
[2]; [29]
  number of events: 9
  number of events (percent of the total 30 adverse events): 30.0%
  subjects with adverse events (number): 3
  subjects with adverse events (percent of group): 33.3%
[2]; [30]
  unexpected adverse events: headache: 1
  unexpected adverse events: increased blood pressure: 1
  unexpected adverse events: increased frequency of urination: 2
  unexpected adverse events: total: 4
[2]; [31]
  number of events: 4
  number of events (percent of the total 30 adverse events): 13.3%
  subjects with adverse events (number): 3
  subjects with adverse events (percent of group): 37.5%
[2]; [32]
  expected adverse events (percent of adverse events): 63.3%
  expected adverse events such as dizziness, nausea, vomiting, and fatigue (number): 19
  unexpected adverse events (number): 11
  unexpected adverse events (percent of adverse events): 36.7%
[2]; [33]
  unexpected adverse events: electrical shock/soft tissue injury: 1
  unexpected adverse events: total: 1
[2]; [34]
  number of events: 7
  number of events (percent of the total 30 adverse events): 23.3%
  subjects with adverse events (number): 2
  subjects with adverse events (percent of group): 25.0%
[2]; [35]
  unexpected adverse events: electrical shock/soft tissue injury: 1
  unexpected adverse events: headache: 3
  unexpected adverse events: increased blood pressure: 2
  unexpected adverse events: increased frequency of urination: 2
  unexpected adverse events: low back pain: 2
  unexpected adverse events: orbital pain: 1
  unexpected adverse events: total: 11
[2]; single dose 200 μg, subjects with different degrees of renal impairment
  safety and tolerability: safe and well tolerated
[3]; all hepatic function groups
  discontinuation due to treatment emergent adverse events: No subject discontinued the trial
  serious adverse events and deaths: Neither serious adverse events nor deaths were observed
[3]; mild hepatic impairment
  no of subjects with at least one treatment emergent adverse event: 2
  no of subjects with headache: 2
  no of subjects with nausea: 0
[3]; moderate hepatic impairment
  no of subjects with at least one treatment emergent adverse event: 4
  no of subjects with headache: 1
  no of subjects with nausea: 1
[3]; no hepatic impairment
  no of subjects with at least one treatment emergent adverse event: 2
  no of subjects with headache: 1
  no of subjects with nausea: 0
[3]; severe hepatic impairment
  no of subjects with at least one treatment emergent adverse event: 4
  no of subjects with headache: 1
  no of subjects with nausea: 1
[3]; subjects with hepatic impairment
  tolerability: well tolerated
[4]; [36]
  AUC0-t: 1.564 ng·h/mL
  AUC0-∞: 1.912 ng·h/mL
  Cmax: 0.074 ng/mL
  Tmax: 5.5 h
[4]; [37]
  AUC0-t: 2.38 ng·h/mL
  AUC0-∞: 3.255 ng·h/mL
  Cmax: 0.095 ng/mL
  Tmax: 4.8 h
[4]; [38]
  AUC0-t: 1.7 ng·h/mL
  AUC0-∞: 2.056 ng·h/mL
  Cmax: 0.081 ng/mL
  Tmax: 5.8 h
[4]; [39]
  AUC0-t: 1.962 ng·h/mL
  AUC0-∞: 2.863 ng·h/mL
  Cmax: 0.091 ng/mL
  Tmax: 2.9 h
